Test results published in US20100227876A1 (priority 2009, published 2010).
Where two headings read alike, the source gives them in different places.

Legend:
male Sprague-Dawley rats = assay: Colorectal distension assay (CRD), visceral pain model, nociceptive threshold; type: in vivo, rat; conditions: fentanyl 0.012 mg/kg; for mean M.P.E.: saline pretreatment, spiradoline 0.3 mg/kg or both SC
rats = conditions: cited from earlier work

Q: With `CN(C(=O)Cc1ccc(Cl)c(Cl)c1)C1CCC2(CCCO2)CC1N1CCCC1` (centres unmarked) as the compound, how does the “mean M.P.E.” value (male Sprague-Dawley rats; 15-minute test) read?
A: 22%

Q: And the “mean M.P.E.” value (male Sprague-Dawley rats; 30-minute test)?
A: 3%

Q: And the M.P.E. score (male Sprague-Dawley rats; β-FNA 8 mg/kg SC 24 hrs pretreatment, spiradoline 0.3 mg/kg or both, 15-minute test)?
A: 4%

Q: And the “change of ANC after n-BNI” value (rats; CWTF, prior results)?
A: reduced ANC

Q: And the “change of ANC after β-FNA” value (rats; CWTF, prior results)?
A: without a significant change

Q: And the “M.P.E. (maximal percent effect, antinociception)” value (rats; n-BNI 10 mg/kg SC 48 hrs pretreatment, F 0.018 mg/kg or Sp 1.0 mg/kg SC 15 min prior)?
A: 13%

Q: What about the “M.P.E. (maximal percent effect, antinociception)” value (rats; n-BNI 10 mg/kg SC 48 hrs pretreatment, F 0.018 mg/kg or Sp 1.0 mg/kg SC 15 min prior, listed as Sp) of the same compound?
A: 13 +/− 5%

Q: And the “M.P.E. (maximal percent effect, antinociception)” value (rats; saline pretreatment SC 24 hrs, F 0.018 mg/kg or Sp 1.0 mg/kg SC 15 min prior to testing)?
A: 77%

Q: And the “M.P.E. (maximal percent effect, antinociception)” value (rats; saline pretreatment SC 24 hrs, F 0.018 mg/kg or Sp 1.0 mg/kg SC 15 min prior to testing, listed as Sp)?
A: 77 +/− 8%

Q: And the “M.P.E. (maximal percent effect, antinociception)” value (rats; β-FNA 8 mg/kg SC 24 hrs pretreatment, F 0.018 mg/kg or Sp 1.0 mg/kg SC 15 min prior)?
A: 67%

Q: What about the “M.P.E. (maximal percent effect, antinociception)” value (rats; β-FNA 8 mg/kg SC 24 hrs pretreatment, F 0.018 mg/kg or Sp 1.0 mg/kg SC 15 min prior, listed as Sp) of the same compound?
A: 67 +/− 12%
